# Test results reported in patent US20070203233A1, “NOVEL 2-(alpha-N-PENTANONYL)BENZOATES, THEIR PREPARATION AND USE” (priority 2004, published 2007).
# System: ICR mice
# Conditions: oral gavage, observed 7 days, method of Bliss
smiles,measurement,value
CCCCC1OC(=O)c2ccccc21 (racemic) [DL-3-n-butylphthalide],LD50 value,2186.1 mg/kg
